# Values quoted from earlier work in patent US20110027230A1, “COMPOSITIONS COMPRISING PHYTOESTROGENES SELECTIVE FOR ESTROGEN BETA RECEPTOR AND DIETARY FIBRES” (priority 2008, published 2011).
# Sequences of proteins named here, by UniProt entry; tags and fusion partners are left off.
# UniProt Q92731, whole entry, species assumed: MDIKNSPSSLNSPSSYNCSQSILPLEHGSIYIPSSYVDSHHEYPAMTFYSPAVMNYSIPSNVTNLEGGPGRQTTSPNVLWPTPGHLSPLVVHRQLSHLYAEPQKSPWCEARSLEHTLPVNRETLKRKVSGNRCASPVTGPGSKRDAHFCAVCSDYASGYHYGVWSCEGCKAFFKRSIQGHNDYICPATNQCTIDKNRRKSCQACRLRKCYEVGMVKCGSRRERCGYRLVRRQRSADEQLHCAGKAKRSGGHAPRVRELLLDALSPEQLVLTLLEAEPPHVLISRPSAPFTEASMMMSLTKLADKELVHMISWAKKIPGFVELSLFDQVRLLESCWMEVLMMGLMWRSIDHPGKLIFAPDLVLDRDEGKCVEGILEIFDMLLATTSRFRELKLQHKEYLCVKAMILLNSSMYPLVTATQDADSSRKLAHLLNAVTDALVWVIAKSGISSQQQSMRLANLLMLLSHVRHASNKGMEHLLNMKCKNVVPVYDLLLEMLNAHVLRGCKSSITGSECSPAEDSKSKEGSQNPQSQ
# Target: ERβ (Homo sapiens, UniProt Q92731)
# Conditions: literature; cited from earlier work
structure (smiles),measurement,value
"C[C@]12CC[C@@H]3c4ccc(O)cc4CC[C@H]3[C@@H]1CC[C@@H]2O [estrogen, 17β-estradiol]",Selectivity for estrogen receptors ERβ and ERα,non selective ligand for both receptors
